In US9492453B2 (priority 2007, dated 2016):

What follows are compounds tested on PKB (Akt). Conditions: read-out: Cellular PKB Mean IC50; MDA-MB-468 cells, phosphorylation of Serine-9 of GSK-3β, 2 hours incubation.
With NC1(C(=O)N[C@H](CCCO)c2ccc(Cl)cc2)CCN(c2ncnc3[nH]ccc23)CC1 [Example 7B, (R)-4-amino-N-(1-(4-chlorophenyl)-4-hydroxybutyl)-1-(7H-pyrrolo[2,3-d]pyrimidin-4-yl)piperidine-4-carboxamide] the IC50 was greater than 3100 nM.
Compound NC1(C(=O)N[C@@H](CCCO)c2ccc(Cl)cc2)CCN(c2ncnc3[nH]ccc23)CC1 [Example 7A, (S)-4-amino-N-(1-(4-chlorophenyl)-4-hydroxybutyl)-1-(7H-pyrrolo[2,3-d]pyrimidin-4-yl)piperidine-4-carboxamide] has an IC50 of 100 nM.
In the case of CC[C@H](NC(=O)C1(N)CCN(c2ncnc3[nH]ccc23)CC1)c1ccc(Cl)cc1 [Example 3A, (S)-4-amino-N-(1-(4-chlorophenyl)propyl)-1-(7H-pyrrolo[2,3-d]pyrimidin-4-yl)piperidine-4-carboxamide], the IC50 is reported as 110 nM.
Work on CC[C@@H](NC(=O)C1(N)CCN(c2ncnc3[nH]ccc23)CC1)c1ccc(Cl)cc1 [Example 3B, (R)-4-amino-N-(1-(4-chlorophenyl)propyl)-1-(7H-pyrrolo[2,3-d]pyrimidin-4-yl)piperidine-4-carboxamide] yielded an IC50 greater than 3100 nM.
